The supplement of paper PMC11316812
± gives the standard deviation of the averaged measurements.

Columns and labels:
[1] = test system: MCF7; assay: percentage of EdU-negative (G0-arrested) nuclei per well, 72 h; higher = more G0 arrest; conditions: reference: sequence is the full UniProt precursor, the tested protein was the secreted form or ectodomain
[2] = test system: hTERT-HMEC; assay: as above; conditions: reference: sequence is the full UniProt precursor, the tested protein was the secreted form or ectodomain
[3] = protein concentration 0.00864 µM
[4] = protein concentration 0.0864 µM
[5] = protein concentration 0.03125 µM
[6] = protein concentration 0.3125 µM
[7] = protein concentration 0.0225 µM
[8] = protein concentration 0.0357143 µM
[9] = protein concentration 0.357143 µM
[10] = protein concentration 0.027535 µM
[11] = protein concentration 0.27535 µM
[12] = protein concentration 0.0354286 µM
[13] = protein concentration 0.354286 µM
[14] = protein concentration 0.0127775 µM
[15] = protein concentration 0.127775 µM
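Note: secreted proteins added to cultured cells, EdU pulse at the end, nuclei found by Hoechst imaging, EdU status from nuclear versus surrounding ring intensity ratio, PBS as neutral control.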

MELSGATMARGLAVLLVLFLHIKNLPAQAADTCPEVKVVGLEGSDKLTILRGCPGLPGAPGPKGEAGVIGERGERGLPGAPGKAGPVGPKGDRGEKGMRGEKGDAGQSQSCATGPRNCKDLLDRGYFLSGWHTIYLPDCRPLTVLCDMDTDGGGWTVFQRRMDGSVDFYRDWAAYKQGFGSQLGEFWLGNDNIHALTAQGSSELRVDLVDFEGNHQFAKYKSFKVADEAEKYKLVLGAFVGGSAGNSLTGHNNNFFSTKDQDNDVSSSNCAEKFQGAWWYADCHASNLNGLYLMGPHESYANGINWSAAKGYKYSYKVSEMKVRPA
percentage of EdU-negative [1, 3]: 24.4 ± 3.5%
percentage of EdU-negative [1, 4]: 26.02 ± 0.077%
percentage of EdU-negative [2, 3]: 4.68 ± 0.66%
percentage of EdU-negative [2, 4]: 6.17 ± 0.52%

MPSSVSWGILLLAGLCCLVPVSLAEDPQGDAAQKTDTSHHDQDHPTFNKITPNLAEFAFSLYRQLAHQSNSTNIFFSPVSIATAFAMLSLGTKADTHDEILEGLNFNLTEIPEAQIHEGFQELLRTLNQPDSQLQLTTGNGLFLSEGLKLVDKFLEDVKKLYHSEAFTVNFGDTEEAKKQINDYVEKGTQGKIVDLVKELDRDTVFALVNYIFFKGKWERPFEVKDTEEEDFHVDQVTTVKVPMMKRLGMFNIQHCKKLSSWVLLMKYLGNATAIFFLPDEGKLQHLENELTHDIITKFLENEDRRSASLHLPKLSITGTYDLKSVLGQLGITKVFSNGADLSGVTEEAPLKLSKAVHKAVLTIDEKGTEAAGAMFLEAIPMSIPPEVKFNKPFVFLMIEQNTKSPLFMGKVVNPTQK
percentage of EdU-negative [1, 5]: 25.2 ± 2.4%
percentage of EdU-negative [1, 6]: 26 ± 2.8%
percentage of EdU-negative [2, 5]: 5.72 ± 0.47%
percentage of EdU-negative [2, 6]: 5.777 ± 0.052%

MEQGKGLAVLILAIILLQGTLAQSIKGNHLVKVYDYQEDGSVLLTCDAEAKNITWFKDGKMIGFLTEDKKKWNLGSNAKDPRGMYQCKGSQNKSKPLQVYYRMCQNCIELNAATISGFLFAEIVSIFVLAVGVYFIAGQDGVRQSRASDKQTLLPNDQLYQPLKDREDDQYSHLQGNQLRRN
percentage of EdU-negative [1, 7]: 24.7 ± 3.7%
percentage of EdU-negative ([1]; protein concentration 0.225 µM): 24.7 ± 0.87%
percentage of EdU-negative [2, 7]: 5.25 ± 0.78%
percentage of EdU-negative ([2]; protein concentration 0.225 µM): 4.58 ± 0.78%

MQIPQAPWPVVWAVLQLGWRPGWFLDSPDRPWNPPTFSPALLVVTEGDNATFTCSFSNTSESFVLNWYRMSPSNQTDKLAAFPEDRSQPGQDCRFRVTQLPNGRDFHMSVVRARRNDSGTYLCGAISLAPKAQIKESLRAELRVTERRAEVPTAHPSPSPRPAGQFQTLVVGVVGGLLGSLVLLVWVLAVICSRAARGTIGARRTGQPLKEDPSAVPVFSVDYGELDFQWREKTPEPPVPCVPEQTEYATIVFPSGMGTSSPARRGSADGPRSAQPLRPEDGHCSWPL
percentage of EdU-negative [1, 8]: 23.7 ± 1.5%
percentage of EdU-negative [1, 9]: 25.1 ± 1.9%
percentage of EdU-negative [2, 8]: 5.19 ± 0.065%
percentage of EdU-negative [2, 9]: 6.2 ± 1.8%

MHLLAILFCALWSAVLAENSDDYDLMYVNLDNEIDNGLHPTEDPTPCACGQEHSEWDKLFIMLENSQMRERMLLQATDDVLRGELQRLREELGRLAESLARPCAPGAPAEARLTSALDELLQATRDAGRRLARMEGAEAQRPEEAGRALAAVLEELRQTRADLHAVQGWAARSWLPAGCETAILFPMRSKKIFGSVHPVRPMRLESFSACIWVKATDVLNKTILFSYGTKRNPYEIQLYLSYQSIVFVVGGEENKLVAEAMVSLGRWTHLCGTWNSEEGLTSLWVNGELAATTVEMATGHIVPEGGILQIGQEKNGCCVGGGFDETLAFSGRLTGFNIWDSVLSNEEIRETGGAESCHIRGNIVGWGVTEIQPHGGAQYVS
percentage of EdU-negative [1, 8]: 25.5 ± 0.38%
percentage of EdU-negative [1, 9]: 23.7 ± 1.3%
percentage of EdU-negative [2, 8]: 4.76 ± 0.38%
percentage of EdU-negative [2, 9]: 6.46 ± 0.83%

MAAGTAVGAWVLVLSLWGAVVGAQNITARIGEPLVLKCKGAPKKPPQRLEWKLNTGRTEAWKVLSPQGGGPWDSVARVLPNGSLFLPAVGIQDEGIFRCQAMNRNGKETKSNYRVRVYQIPGKPEIVDSASELTAGVPNKVGTCVSEGSYPAGTLSWHLDGKPLVPNEKGVSVKEQTRRHPETGLFTLQSELMVTPARGGDPRPTFSCSFSPGLPRHRALRTAPIQPRVWEPVPLEEVQLVVEPEGGAVAPGGTVTLTCEVPAQPSPQIHWMKDGVPLPLPPSPVLILPEIGPQDQGTYSCVATHSSHGPQESRAVSISIIEPGEEGPTAGSVGGSGLGTLALALGILGGLGTAALLIGVILWQRRQRRGEERKAPENQEEEEERAELNQSEEPEAGESSTGGP
percentage of EdU-negative [1, 10]: 26.7 ± 0.38%
percentage of EdU-negative [1, 11]: 28.1 ± 2.4%
percentage of EdU-negative [2, 10]: 4.83 ± 0.15%
percentage of EdU-negative [2, 11]: 7.27 ± 1.5%

MRASSFLIVVVFLIAGTLVLEAAVTGVPVKGQDTVKGRVPFNGQDPVKGQVSVKGQDKVKAQEPVKGPVSTKPGSCPIILIRCAMLNPPNRCLKDTDCPGIKKCCEGSCGMACFVPQ
percentage of EdU-negative [1, 7]: 29 ± 1.3%
percentage of EdU-negative ([1]; protein concentration 0.225 µM): 26.3 ± 1.7%
percentage of EdU-negative [2, 7]: 5.968 ± 0.017%
percentage of EdU-negative ([2]; protein concentration 0.225 µM): 6.79 ± 1.1%

MEICRGLRSHLITLLLFLFHSETICRPSGRKSSKMQAFRIWDVNQKTFYLRNNQLVAGYLQGPNVNLEEKIDVVPIEPHALFLGIHGGKMCLSCVKSGDETRLQLEAVNITDLSENRKQDKRFAFIRSDSGPTTSFESAACPGWFLCTAMEADQPVSLTNMPDEGVMVTKFYFQEDE
percentage of EdU-negative [1, 5]: 24.1 ± 2.4%
percentage of EdU-negative [1, 6]: 26.9 ± 1%
percentage of EdU-negative [2, 5]: 4.62 ± 0.45%
percentage of EdU-negative [2, 6]: 5.82 ± 0.83%

MAWFALYLLSLLWATAGTSTQTQSSCSVPSAQEPLVNGIQVLMENSVTSSAYPNPSILIAMNLAGAYNLKAQKLLTYQLMSSDNNDLTIGQLGLTIMALTSSCRDPGDKVSILQRQMENWAPSSPNAEASAFYGPSLAILALCQKNSEATLPIAVRFAKTLLANSSPFNVDTGAMATLALTCMYNKIPVGSEEGYRSLFGQVLKDIVEKISMKIKDNGIIGDIYSTGLAMQALSVTPEPSKKEWNCKKTTDMILNEIKQGKFHNPMSIAQILPSLKGKTYLDVPQVTCSPDHEVQPTLPSNPGPGPTSASNITVIYTINNQLRGVELLFNETINVSVKSGSVLLVVLEEAQRKNPMFKFETTMTSWGLVVSSINNIAENVNHKTYWQFLSGVTPLNEGVADYIPFNHEHITANFTQY
percentage of EdU-negative [1, 12]: 24.3 ± 1.3%
percentage of EdU-negative [1, 13]: 25.8 ± 0.51%
percentage of EdU-negative [2, 12]: 4.8 ± 0.28%
percentage of EdU-negative [2, 13]: 7.15 ± 0.68%

MIILIYLFLLLWEDTQGWGFKDGIFHNSIWLERAAGVYHREARSGKYKLTYAEAKAVCEFEGGHLATYKQLEAARKIGFHVCAAGWMAKGRVGYPIVKPGPNCGFGKTGIIDYGIRLNRSERWDAYCYNPHAKECGGVFTDPKQIFKSPGFPNEYEDNQICYWHIRLKYGQRIHLSFLDFDLEDDPGCLADYVEIYDSYDDVHGFVGRYCGDELPDDIISTGNVMTLKFLSDASVTAGGFQIKYVAMDPVSKSSQGKNTSTTSTGNKNFLAGRFSHL
percentage of EdU-negative [1, 14]: 25.8 ± 1.6%
percentage of EdU-negative [1, 15]: 28.1 ± 2.9%
percentage of EdU-negative [2, 14]: 4.79 ± 0.52%
percentage of EdU-negative [2, 15]: 5.86 ± 1.9%

MLFLLLPLLAVLPGDGNADGLKEPLSFHVTWIASFYNHSWKQNLVSGWLSDLQTHTWDSNSSTIVFLCPWSRGNFSNEEWKELETLFRIRTIRSFEGIRRYAHELQFEYPFEIQVTGGCELHSGKVSGSFLQLAYQGSDFVSFQNNSWLPYPVAGNMAKHFCKVLNQNQHENDITHNLLSDTCPRFILGLLDAGKAHLQRQVKPEAWLSHGPSPGPGHLQLVCHVSGFYPKPVWVMWMRGEQEQQGTQRGDILPSADGTWYLRATLEVAAGEAADLSCRVKHSSLEGQDIVLYWEHHSSVGFIILAVIVPLLLLIGLALWFRKRCFC
percentage of EdU-negative [1, 7]: 26.7 ± 0.86%
percentage of EdU-negative ([1]; protein concentration 0.225 µM): 28.1 ± 2.5%
percentage of EdU-negative [2, 7]: 4.5 ± 0.6%
percentage of EdU-negative ([2]; protein concentration 0.225 µM): 7.24 ± 0.28%
